Test [1] relates to Ba/F3-Parental. Description: MTS viability assay, Ba/F3 parental cells. The following applies: read-out: Ba/F3-Parental GI50, 72 h incubation, top concentration 10 uM. How it is done: Exponentially grown Ba/F3 cells (1.5×10^6 cells in 2 ml medium) were infected with 2 ml of viral suspension in a 6-well plate in the presence of mIL-3 (10 ng/ml) and polybrene (4 μg/ml) (Sigma Aldrich, St. Louis, Mo.) and incubated for 24 h. After 24 h, the cells were centrifuged and the viral supernatant was discarded. The cells were then re-suspended in fresh medium and allowed to recover for another day. The following day, the cells were seeded in complete medium without murine IL-3. After a week or two, when cells started proliferating, a selection was carried out by gradually increasing the puromycin concentration to 0.5 ug/ml. […]
(§1) The impact of KIT inhibitors on the viability of Ba/F3 expressing KIT mutations was determined using an MTS assay, which is a colorimetric sensitive quantification of viable cells in proliferation and cytotoxicity assay. […] After 72 h, MTS reagent was added to the plates and incubated an additional 2 h at 37° C. before measuring the absorbance at 490 nm on a Tecan microplate reader using Magellan Software (Tecan Trading AG, Switzerland).
(§2) The absorbances were normalized as follows: (Read-Day0 control)/(Day3 control−Day0 control)*100. […] The GI50 values reported below are the calculated mean result of at least 3 biological replicates across all the cell lines tested.

Amino acid sequences for entries named in this document (tags omitted). Chains listed by the source or under a name are the forms on record and can include a tag or linker.
UniProt P10721, with tags, fused parts or gaps D816H/DEL557-558 limits assumed: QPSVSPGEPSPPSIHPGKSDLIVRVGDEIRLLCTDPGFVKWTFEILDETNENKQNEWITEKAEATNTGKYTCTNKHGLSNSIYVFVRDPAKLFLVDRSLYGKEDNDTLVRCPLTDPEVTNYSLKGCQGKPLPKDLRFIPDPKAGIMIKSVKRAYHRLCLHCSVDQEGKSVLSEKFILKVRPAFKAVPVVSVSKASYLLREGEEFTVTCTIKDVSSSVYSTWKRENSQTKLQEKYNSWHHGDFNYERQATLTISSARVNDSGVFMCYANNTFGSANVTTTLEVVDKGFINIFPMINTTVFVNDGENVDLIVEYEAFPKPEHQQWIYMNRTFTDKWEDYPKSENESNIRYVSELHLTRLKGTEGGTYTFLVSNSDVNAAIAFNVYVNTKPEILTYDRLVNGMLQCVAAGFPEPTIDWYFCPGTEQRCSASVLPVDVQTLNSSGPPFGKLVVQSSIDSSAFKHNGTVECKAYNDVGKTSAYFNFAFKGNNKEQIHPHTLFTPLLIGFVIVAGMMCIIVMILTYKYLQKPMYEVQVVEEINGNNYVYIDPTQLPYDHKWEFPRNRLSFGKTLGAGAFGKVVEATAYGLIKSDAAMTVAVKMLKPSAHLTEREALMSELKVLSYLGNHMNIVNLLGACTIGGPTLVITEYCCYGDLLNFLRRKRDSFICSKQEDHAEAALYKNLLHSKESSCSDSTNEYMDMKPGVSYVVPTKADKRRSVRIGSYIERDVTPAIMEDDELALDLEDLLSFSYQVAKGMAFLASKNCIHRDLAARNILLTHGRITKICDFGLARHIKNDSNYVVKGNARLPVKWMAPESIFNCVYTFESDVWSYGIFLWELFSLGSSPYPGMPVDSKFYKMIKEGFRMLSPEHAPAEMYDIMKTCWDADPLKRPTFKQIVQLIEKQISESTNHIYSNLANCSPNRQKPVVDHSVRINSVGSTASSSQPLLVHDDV
UniProt P10721, with tags, fused parts or gaps DEL557-558/T670I limits assumed: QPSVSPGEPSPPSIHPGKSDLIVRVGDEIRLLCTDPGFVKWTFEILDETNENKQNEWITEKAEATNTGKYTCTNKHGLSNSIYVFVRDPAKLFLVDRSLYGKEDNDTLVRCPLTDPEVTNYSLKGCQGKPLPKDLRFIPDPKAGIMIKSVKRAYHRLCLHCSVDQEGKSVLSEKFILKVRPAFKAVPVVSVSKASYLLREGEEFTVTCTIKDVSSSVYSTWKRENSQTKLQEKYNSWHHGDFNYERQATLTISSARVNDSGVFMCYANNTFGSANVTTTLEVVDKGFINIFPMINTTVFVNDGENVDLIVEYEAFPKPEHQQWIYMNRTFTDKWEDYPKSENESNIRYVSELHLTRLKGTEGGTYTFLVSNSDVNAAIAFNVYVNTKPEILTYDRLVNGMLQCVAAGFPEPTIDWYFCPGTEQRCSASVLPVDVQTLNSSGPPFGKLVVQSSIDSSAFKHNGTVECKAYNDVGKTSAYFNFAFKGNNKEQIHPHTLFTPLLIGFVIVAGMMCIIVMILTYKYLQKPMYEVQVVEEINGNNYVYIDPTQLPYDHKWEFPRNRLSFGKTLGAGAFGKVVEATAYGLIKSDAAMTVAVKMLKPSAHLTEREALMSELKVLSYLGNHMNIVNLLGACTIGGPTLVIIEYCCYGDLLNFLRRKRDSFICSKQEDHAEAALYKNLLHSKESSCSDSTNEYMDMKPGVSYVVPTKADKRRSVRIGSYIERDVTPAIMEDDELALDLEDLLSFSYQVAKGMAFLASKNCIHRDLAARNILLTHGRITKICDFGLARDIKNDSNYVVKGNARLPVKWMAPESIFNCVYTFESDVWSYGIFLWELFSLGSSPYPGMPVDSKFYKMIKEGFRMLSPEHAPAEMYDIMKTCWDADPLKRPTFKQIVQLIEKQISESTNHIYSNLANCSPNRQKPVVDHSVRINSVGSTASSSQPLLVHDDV
UniProt P10721, with tags, fused parts or gaps DEL557-558/V654A limits assumed: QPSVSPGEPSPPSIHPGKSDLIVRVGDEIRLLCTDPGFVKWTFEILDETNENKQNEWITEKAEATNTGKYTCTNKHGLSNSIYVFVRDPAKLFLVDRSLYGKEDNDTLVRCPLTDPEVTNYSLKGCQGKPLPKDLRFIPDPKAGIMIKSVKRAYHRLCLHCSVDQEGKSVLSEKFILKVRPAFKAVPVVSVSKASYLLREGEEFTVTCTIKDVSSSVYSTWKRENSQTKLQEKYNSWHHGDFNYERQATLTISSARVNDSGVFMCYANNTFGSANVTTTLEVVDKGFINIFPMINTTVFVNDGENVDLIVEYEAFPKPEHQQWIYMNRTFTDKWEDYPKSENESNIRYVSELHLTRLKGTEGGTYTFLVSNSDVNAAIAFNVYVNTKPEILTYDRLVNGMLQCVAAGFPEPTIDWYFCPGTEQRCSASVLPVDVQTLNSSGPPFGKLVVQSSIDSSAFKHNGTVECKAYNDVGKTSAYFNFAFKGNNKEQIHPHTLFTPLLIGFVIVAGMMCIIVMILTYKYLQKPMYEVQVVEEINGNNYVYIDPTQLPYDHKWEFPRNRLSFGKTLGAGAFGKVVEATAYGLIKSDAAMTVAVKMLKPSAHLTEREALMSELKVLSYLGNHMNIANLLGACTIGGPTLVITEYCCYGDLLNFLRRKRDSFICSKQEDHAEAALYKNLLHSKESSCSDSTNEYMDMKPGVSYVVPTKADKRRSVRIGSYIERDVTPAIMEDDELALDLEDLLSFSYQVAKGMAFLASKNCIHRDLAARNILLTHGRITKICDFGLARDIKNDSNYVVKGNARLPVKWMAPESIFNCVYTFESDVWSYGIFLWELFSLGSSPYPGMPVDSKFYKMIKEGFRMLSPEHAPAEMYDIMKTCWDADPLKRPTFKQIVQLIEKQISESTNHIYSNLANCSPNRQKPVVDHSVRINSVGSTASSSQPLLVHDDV

Test [2] has as its target Ba/F3-V654A (KIT exon11 deletion (557-558) and secondary mutation V654A) (Homo sapiens, UniProt P10721, DEL557-558/V654A). As to the kind of experiment: MTS viability assay, Ba/F3 expressing KIT exon11 deletion (557-558) and V654A. Particulars: read-out: Ba/F3-V654A GI50, 72 h incubation, top concentration 10 uM. A general note: Tetrazolium assays rely on reduction of a dye to a coloured formazan, in cell work by metabolically active cells.

The target of test [3] is Ba/F3-T670I (KIT exon11 deletion (557-558) and secondary mutation T670I) (Homo sapiens, UniProt P10721, DEL557-558/T670I). Description: MTS viability assay, Ba/F3 expressing KIT exon11 deletion (557-558) and T670I. Particulars: read-out: Ba/F3-T670I GI50, 72 h incubation, top concentration 10 uM.
For test [4], the system named is TEL-KDR (KDR (K790-V1356) fused to the C-terminus of Tel). As to the kind of experiment: MTS viability assay, Ba/F3 expressing Tel-KDR. Particulars: read-out: TEL-KDR GI50, 72 h incubation, top concentration 10 uM. How it is done:
Tel-KDR myc was cloned into pBCS2004, a retroviral vector, wherein KDR (K790-V1356) is fused to the C-terminus of Tel. Retroviral particles were generated in HEK293T cells. The Tel-KDR plasmid was co-transfected with helper viruses (gag-Pol and VSV-G) into HEK293T cells using calcium phosphate and the virus was harvested 72 h after transfection.
Exponentially grown Ba/F3 cells (1.5×10^6 cells in 2 ml medium) were infected with 2 ml of viral suspension in a 6-well plate in the presence of mIL-3 (10 ng/ml) and polybrene (4 μg/ml) (Sigma Aldrich, St. Louis, Mo.) and incubated for 24 h. After 24 h, the cells were centrifuged and the viral supernatant was discarded. […]
as §1, §2

Test [5] addresses Ba/F3-D816H (KIT exon11 deletion (557-558) and secondary mutation D816H) (Homo sapiens, UniProt P10721, D816H/DEL557-558). As to the kind of experiment: MTS viability assay, Ba/F3 expressing KIT exon11 deletion (557-558) and D816H. The following applies: read-out: Ba/F3-D816H GI50, 72 h incubation, top concentration 10 uM.

Turning to `CCOc1cc(OC2CCOC2)cc2ncnc(Nc3ccc(NC(=O)Cn4cc(C(C)C)nn4)cc3)c12` (single isomer, unassigned) [Example 4], the GI50 in test [1] is 1720 nM; in test [2] it was 12 nM; in test [3], 49 nM; in test [4], 2220 nM; in test [5], 45 nM.
Regarding `CCOc1cc(OC2CCOC2)cc2ncnc(Nc3ccc(NC(=O)Cn4cc(C(C)C)nn4)cc3)c12` (single isomer, unassigned) [Example 3], the GI50 in test [1] stood at 1470 nM; in test [2] it was 11 nM; in test [3] it was 61 nM; in test [4], 1840 nM; in test [5] it was 42 nM.
